In ChEMBL document CHEMBL2429811, “Novel selective and potent inhibitors of malaria parasite dihydroorotate dehydrogenase: discovery and optimization of dihydrothiophenone derivatives” (J Med Chem, 2013):

Test: Selectivity ratio of IC50 for N-terminal His10-tagged human DHODH (Met30 to Arg396) to IC50 for Plasmodium falciparum DHODH (Phe158 to Ser569)

`CCOC(=O)C1=C(Nc2ccc3ccccc3c2)OCC1=O` showed a Ratio IC50 of over 14000.
